## Ab-14 light chain CDR variants: yeast mating affinities

All variants were tested on one target, the spike HR2 peptide PDVDLGDISGINAS (SARS-CoV-2).

Each scFv is VH, three GGGGS repeats, VL, as in the parent Ab-14, and differs from it in the CDRs of the light chain only.
VH: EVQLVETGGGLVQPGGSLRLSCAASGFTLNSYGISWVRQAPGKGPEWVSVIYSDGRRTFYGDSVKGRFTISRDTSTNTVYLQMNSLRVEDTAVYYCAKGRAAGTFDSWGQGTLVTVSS
VL: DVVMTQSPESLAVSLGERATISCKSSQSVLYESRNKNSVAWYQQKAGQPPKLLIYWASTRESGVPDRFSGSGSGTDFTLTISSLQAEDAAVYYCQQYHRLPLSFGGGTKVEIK

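The parent was found by panning a naive human phage display library on the peptide. The variants were designed computationally from a first round of random CDR variants and then made and measured. Their group label is 14L_GP_Gen (GP: Gaussian process model; Gen: genetic algorithm; a sequence that several methods proposed may carry one label only). Affinity was read by AlphaSeq, a pooled yeast mating assay with surface-displayed partners. Pairs that bind mate more often; barcode pairs of the diploids are counted by sequencing. Scores were corrected for input abundance and mapped to Kd with protein pairs of known affinity run in the same pool. There are six technical replicates.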

Variants are written as CDR1, CDR2 and CDR3 of the light chain (limits as in the source). Parent: KSSQSVLYESRNKNSVA, WASTRES, QQYHRLPLS.
Scale: log10 of Kd in nM, estimated from mating counts; low values are strong binders.
A mean of the replicates is given; it leaves out those without a signal.
Of ten entries with the parent sequence, four were seen in most replicates (averages 0.34 to 2.37), three in one and three in none, so single entries are noisy.
In the paper, a design with two or fewer of six values counts as a poor binder.
The range of this assay differs from that of the first round, and the authors advise against merging the two.
Nonspecific signal, from three strains lacking the peptide, appeared in 4% of pairings of all light chain designs, centred on 2.64 (5% of these signals below 1.59); values are not corrected for it. For each scFv, signals with the empty controls are counted beside the result, with their mean in brackets.

CDR-L1	CDR-L2	CDR-L3	log10 Kd, replicates	mean log10 Kd (nM)	control signals
KSSQSELYESRNKNSVA	EASTRCS	QQYHRLPLS	-0.37 / -0.28 / -0.56 / -0.39 / -0.44 / -0.13	-0.36	0 of 18
KLSQSELYESRNKMSVA	NASTRES	QQYHRLPLS	-0.18 / -0.12 / 0.01 / -0.14 / -0.13 / -0.13	-0.12	0 of 18
KLQQSHLYESRNKNSVA	GASTRES	QQYHRLPLS	0.09 / -0.20 / -0.12 / -0.52 / -0.15 / -0.05	-0.16	2 of 18 (2.37)
KFSQSDLYEDRNKNSVA	NASQRES	QQYHRLPLS	-0.23 / -0.22 / -0.35 / -0.35 / -0.37 / -0.19	-0.29	0 of 18
KLSQSVLYESRNKNNVA	NASTREM	QQYHRLPLS	-0.43 / -0.48 / -0.57 / -0.44 / -0.68 / -0.50	-0.52	0 of 18
KVSQSWLYESRNKNNVA	NASQRES	QQYHRLPLS	-0.30 / -0.24 / -0.35 / -0.38 / -0.40 / -0.20	-0.31	5 of 18 (3.49)
KLSQSVLYESRHKNSVA	EASTRES	QQYHRLPLS	0.20 / 0.00 / 0.25 / 0.04 / 0.02 / 0.29	0.13	0 of 18
KLPQSVLYESRNKNAVA	EASTRES	QQYHRLPLS	-0.06 / -0.38 / -0.59 / -0.37 / -0.47 / -0.36	-0.37	0 of 18
KLFQSVLYESRNKNSVA	GASTRES	QQYHRLPLS	0.17 / -0.05 / -0.20 / -0.21 / -0.26 / 0.00	-0.09	0 of 18
KVPQSVLYESRNKNSVA	NASTRES	QQYHRLPLS	-0.10 / -0.17 / -0.23 / -0.37 / -0.23 / -0.06	-0.19	1 of 18 (2.63)
KLSQSHLYESRNKNSVA	NASTRES	QQYHRLPLM	0.51 / 0.23 / 0.12 / 0.08 / 0.12 / 0.02	0.18	1 of 18 (2.98)
KLSQSVEYESRNKNSVA	NASTRES	QQYHRLPLM	0.35 / 0.20 / -0.07 / -0.06 / -0.05 / 0.21	0.09	0 of 18
KLEQSVLYESRNKNSVA	NASQRES	QQYHRLPLS	0.22 / -0.20 / -0.25 / 0.19 / 0.00 / -0.13	-0.03	0 of 18

2 of these entries, quoted again:

| CDR-L1 | CDR-L2 | CDR-L3 | log10 Kd, replicates | mean log10 Kd (nM) | control signals |
|---|---|---|---|---|---|
| KVPQSVLYESRNKNSVA | NASTRES | QQYHRLPLS | -0.10 / -0.17 / -0.23 / -0.37 / -0.23 / -0.06 | -0.19 | 1 of 18 (2.63) |
| KLFQSVLYESRNKNSVA | GASTRES | QQYHRLPLS | 0.17 / -0.05 / -0.20 / -0.21 / -0.26 / 0.00 | -0.09 | 0 of 18 |

Values reported by Li et al. 2023, doi:10.1038/s41467-023-39022-2 (FLAb copy).